Among the data in patent US8959984B2, “Proteome-wide quantification of small molecule binding to cellular target proteins” (priority 2007, dated 2015) are Ki values, retold here.

Sequences of proteins named here, by UniProt entry; tags and fusion partners are left off. A change or cut given only in a name is not applied to a line headed by its entry. Residues count along the entry.
UniProt Q08345, 19-913: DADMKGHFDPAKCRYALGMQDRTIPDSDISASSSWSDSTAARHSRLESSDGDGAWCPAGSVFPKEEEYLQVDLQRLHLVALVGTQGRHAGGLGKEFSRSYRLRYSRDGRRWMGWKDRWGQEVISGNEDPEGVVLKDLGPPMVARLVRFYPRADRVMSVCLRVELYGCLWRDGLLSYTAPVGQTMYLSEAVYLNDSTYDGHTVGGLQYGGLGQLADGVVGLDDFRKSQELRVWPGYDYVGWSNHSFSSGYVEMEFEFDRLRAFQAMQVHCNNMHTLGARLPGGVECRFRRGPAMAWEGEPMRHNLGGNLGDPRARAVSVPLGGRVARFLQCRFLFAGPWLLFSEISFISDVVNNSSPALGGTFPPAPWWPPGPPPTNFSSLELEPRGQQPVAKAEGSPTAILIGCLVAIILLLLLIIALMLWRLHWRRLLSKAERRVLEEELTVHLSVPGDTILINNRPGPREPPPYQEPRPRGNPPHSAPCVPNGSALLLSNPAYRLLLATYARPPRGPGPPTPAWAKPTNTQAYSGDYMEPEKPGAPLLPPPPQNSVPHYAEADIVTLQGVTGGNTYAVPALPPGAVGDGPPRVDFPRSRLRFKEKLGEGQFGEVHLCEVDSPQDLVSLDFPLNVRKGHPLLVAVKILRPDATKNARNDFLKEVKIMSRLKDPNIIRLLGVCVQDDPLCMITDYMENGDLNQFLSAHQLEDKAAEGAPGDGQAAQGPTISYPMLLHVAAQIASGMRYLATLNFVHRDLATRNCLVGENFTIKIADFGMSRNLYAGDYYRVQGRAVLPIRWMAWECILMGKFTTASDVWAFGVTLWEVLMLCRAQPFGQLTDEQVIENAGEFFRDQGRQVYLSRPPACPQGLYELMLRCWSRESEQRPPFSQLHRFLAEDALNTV
UniProt Q13131: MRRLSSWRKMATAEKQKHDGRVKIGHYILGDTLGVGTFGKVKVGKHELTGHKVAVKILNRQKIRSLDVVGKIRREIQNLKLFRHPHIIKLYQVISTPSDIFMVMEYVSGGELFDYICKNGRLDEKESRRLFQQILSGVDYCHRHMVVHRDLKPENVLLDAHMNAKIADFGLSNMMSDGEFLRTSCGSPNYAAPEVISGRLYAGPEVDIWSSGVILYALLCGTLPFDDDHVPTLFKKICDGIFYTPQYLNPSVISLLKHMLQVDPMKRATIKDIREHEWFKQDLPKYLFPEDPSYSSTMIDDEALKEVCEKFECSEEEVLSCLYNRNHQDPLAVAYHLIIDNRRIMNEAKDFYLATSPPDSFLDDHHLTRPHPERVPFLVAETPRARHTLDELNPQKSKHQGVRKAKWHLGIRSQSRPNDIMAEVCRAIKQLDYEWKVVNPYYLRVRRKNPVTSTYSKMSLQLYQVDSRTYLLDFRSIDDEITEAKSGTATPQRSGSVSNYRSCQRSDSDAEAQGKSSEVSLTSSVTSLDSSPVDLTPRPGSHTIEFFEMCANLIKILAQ
UniProt Q9P1W9: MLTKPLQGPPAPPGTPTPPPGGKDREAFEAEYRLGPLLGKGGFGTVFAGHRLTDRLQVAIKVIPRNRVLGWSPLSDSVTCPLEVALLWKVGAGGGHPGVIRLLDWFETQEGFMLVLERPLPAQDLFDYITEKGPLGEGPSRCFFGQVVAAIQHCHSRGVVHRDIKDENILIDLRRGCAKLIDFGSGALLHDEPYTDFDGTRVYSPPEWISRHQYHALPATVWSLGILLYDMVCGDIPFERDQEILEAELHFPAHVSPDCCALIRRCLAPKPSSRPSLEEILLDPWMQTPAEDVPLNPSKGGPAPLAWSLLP

What all share (assay): Ki determination for immobilized VI16742: two consecutive incubations, control beads, ligand concentration and incubation time controls (Tables 7, 8)
Holding throughout (format): binding

In test [1] the target is cellular target proteins in HeLa cell lysate (Homo sapiens, UniProt Q08345). Conditions: Ki (VI16742), DDR1 IPI00657861.
Test [2] addresses T1, cellular target proteins in HeLa cell lysate (Homo sapiens, UniProt Q13011).
T1 sequence (Q13011 34-328): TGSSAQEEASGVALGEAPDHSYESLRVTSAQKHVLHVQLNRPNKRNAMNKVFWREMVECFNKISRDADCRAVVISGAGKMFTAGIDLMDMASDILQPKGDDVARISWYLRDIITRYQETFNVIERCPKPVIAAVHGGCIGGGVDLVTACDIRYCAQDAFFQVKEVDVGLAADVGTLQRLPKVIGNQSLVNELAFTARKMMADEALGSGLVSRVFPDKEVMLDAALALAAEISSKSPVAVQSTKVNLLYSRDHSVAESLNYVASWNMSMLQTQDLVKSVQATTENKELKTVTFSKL
Conditions: Ki (VI16742), ECH1 IPI00011416.

Test [3] has as its target cellular target proteins in HeLa cell lysate (Homo sapiens, UniProt Q13131). Conditions: Ki (VI16742), AMPKa1 (PRKAA1) IPI00410287.
Test [4] has as its target cellular target proteins in HeLa cell lysate (Homo sapiens, UniProt Q9P1W9). Conditions: Ki (VI16742), PIM2 IPI00332692.
For test [5], the target named is T2, cellular target proteins in HeLa cell lysate (Homo sapiens, UniProt Q9Y478).
T2 sequence (Q9Y478 1-270): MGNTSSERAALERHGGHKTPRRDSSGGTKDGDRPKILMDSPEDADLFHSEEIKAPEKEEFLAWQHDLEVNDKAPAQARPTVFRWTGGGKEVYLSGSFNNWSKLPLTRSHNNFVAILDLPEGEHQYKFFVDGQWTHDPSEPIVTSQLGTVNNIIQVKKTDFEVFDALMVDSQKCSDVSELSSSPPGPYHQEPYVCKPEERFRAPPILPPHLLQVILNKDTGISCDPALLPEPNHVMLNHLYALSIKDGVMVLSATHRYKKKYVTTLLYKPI
Conditions: Ki (VI16742), PRKAB1 IPI00220409.

The target in test [6] is T3, cellular target proteins in HeLa cell lysate (Homo sapiens, UniProt P31947).
T3 sequence (P31947 1-248): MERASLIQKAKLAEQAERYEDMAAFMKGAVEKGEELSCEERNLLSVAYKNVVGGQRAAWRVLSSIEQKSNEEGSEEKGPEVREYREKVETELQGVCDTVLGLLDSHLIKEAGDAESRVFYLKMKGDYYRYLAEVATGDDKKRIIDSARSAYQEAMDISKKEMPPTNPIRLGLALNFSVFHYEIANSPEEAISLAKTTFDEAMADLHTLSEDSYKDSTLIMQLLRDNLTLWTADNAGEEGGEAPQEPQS
Conditions: Ki (VI16742), SFN IPI00013890.

The target in test [7] is T4, cellular target proteins in HeLa cell lysate (Homo sapiens, UniProt Q8TBX8).
T4 sequence (Q8TBX8 1-421): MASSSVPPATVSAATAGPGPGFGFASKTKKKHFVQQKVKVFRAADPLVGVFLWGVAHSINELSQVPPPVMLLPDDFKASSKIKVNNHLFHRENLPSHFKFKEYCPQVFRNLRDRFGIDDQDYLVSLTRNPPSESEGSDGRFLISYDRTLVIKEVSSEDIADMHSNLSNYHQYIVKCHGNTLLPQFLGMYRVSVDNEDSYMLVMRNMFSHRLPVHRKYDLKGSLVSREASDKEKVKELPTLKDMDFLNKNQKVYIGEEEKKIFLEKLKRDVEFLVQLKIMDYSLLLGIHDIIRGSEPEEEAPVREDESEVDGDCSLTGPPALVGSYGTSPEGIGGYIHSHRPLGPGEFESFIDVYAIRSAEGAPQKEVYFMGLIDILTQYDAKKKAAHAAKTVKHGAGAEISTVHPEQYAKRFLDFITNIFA
Conditions: Ki (VI16742), PIP4K2C IPI00152303.

Turning to `CC(C)n1c(=O)ccc2cnc(Nc3ccc(OCCN)cc3)nc21` [V16742], the inhibition constant Ki stood at 40.8 µM in test [1]; 7.17 µM in test [2]; 17.8 µM in test [3]; 49.4 µM in test [4]; 18.5 µM in test [5]; 33.2 µM in test [6]. Also, the Ki in test [7] is 15.3 µM.

Broadly, the Ki is the dissociation constant of the complex between target and ligand, obtained from inhibition or displacement. Low readings indicate a stronger hold on the target, high ones a looser hold on the target.
